INS-1E GSIS act = GLuc luminescence reporter in INS-1E cells, primary screen for activators of glucose-dependent secretion of insulin | 370,000 compounds, 0.61% hits | INS-1E GLuc reporter insulin secretion, 2-3 h | activation, % at 16.6 µM;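 active = lowest replicate activation of at least 40%, so every replicate reaches that level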
RAD52 anneal inh = RAD52 DNA annealing inhibitors, primary screen, biochemical, FRET, single point, set 2 | DNA repair protein RAD52 homolog (Homo sapiens), P43351 | 360,000 compounds, 0.46% hits | recombinant RAD52 DNA annealing, FRET fluorescence | inhibition, % at 18.7 µM;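 active = every replicate showing at least 50% inhibition; inconclusive = mean inhibition at least 50% but not in every replicate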
PglD inh = C. jejuni PglD acetyltransferase inhibitors, primary screen, biochemical, DTNB colorimetric, single point; UDP-N-acetylbacillosamine N-acetyltransferase PglD (Campylobacter jejuni); 360,000 compounds, 0.098% hits; purified PglD enzyme, DTNB colorimetric CoA detection; inhibition, % at 12.5 µM; AID 602405, 2012; in the data active = inhibition above about 16%, passing the limit was not always enough; inconclusive = no clear call, values can overlap the other calls
UUG fidelity = modulators of start codon recognition fidelity in yeast; S. cerevisiae UUG-firefly luciferase reporter, luminescence/redox ratio; activity score, % at 18.7 µM; hit rate 0.13% among 350,000; AID 602363;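 active = replicate mean at a twofold rise or more, about +100% in these data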;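 note: firefly luciferase made from a UUG start codon reports start codon fidelity; reporter light over untreated wells divided by growth signal over untreated wells; some hits fall short of that in this replicate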
RAD54 inh = inhibitors of human RAD54 branch migration, primary screen, biochemical, fluorescence, single point; DNA repair and recombination protein RAD54-like (Homo sapiens), Q92698; RAD54 Holliday junction branch migration, FAM/BHQ fluorescence; inhibition, % at 10.4 µM; 360,000 compounds, 0.14% hits; AID 602329, 2012;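 active = mean normalized replicate activity at least 40 and at least half of replicates scoring 40 or more; inconclusive = only one of the two criteria met; inactive = mean below 40 and under half of replicates reaching 40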;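 also: inhibitors cause a drop in the FAM fluorescence signal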
CASP6 VEID inh = human caspase-6 inhibitors, primary screen, biochemical, VEID-R110 fluorescence, single point, set 2; P55212; purified caspase-6, Z-VEID-R110 cleavage fluorescence; inhibition, % at 12.5 µM; 350,000 compounds, 0.53% hits; AID 686996, 2013;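 active = mean inhibition across replicates at least about 35%, with every replicate also reaching that limit, limit read from the data; inconclusive = only one of the two criteria met; inactive = neither criterion met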
DNA binding = DNA binding of candidate compounds, dose response, artefact control for RAD54 inhibitor project, biochemical, fluorescence polarization, cherry-pick. Acridine orange-DNA displacement, 20 min. 460 compounds, 8% hits. shares compounds with RAD54 inh. AC50, µM (top dose mostly 35 µM);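 active = signal drop giving an AC50 within twice the top valid tested concentration of each sample, actives reach about 35 µM in these data; inactive = activity opposite to expected, plus the rest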;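 also: polarization loss reports compound binding to salmon sperm DNA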
A number is an active result; – = inactive; ? = inconclusive; · = no result given. Rows were chosen to be rich in hits. Some 1.5% of all compounds tested hit in one or more screens of this group.

SMILES | INS-1E GSIS act | RAD52 anneal inh | PglD inh | UUG fidelity | RAD54 inh | CASP6 VEID inh | DNA binding
CC1Cc2ccccc2N1CC(=O)Nc1ccc2c(c1)OCO2 (configuration not stated) | · | · | – | – | – | · | ·
CN(C)CCN(C(=O)c1ccco1)c1nc2cc3c(cc2s1)OCCO3 | – | – | – | – | 64 | – | –
CCC(=O)N(Cc1cc2cc(OC)ccc2[nH]c1=O)c1cc(C)ccc1C | · | · | – | – | ? | · | –
Cc1cc(NCCCN(C)C)n2c(nc3ccccc32)c1C#N | – | – | – | – | 70 | – | –
CC1CCN(CCCNC(=O)c2cc3c(Cl)nc4ccccc4c3s2)CC1 | – | – | – | – | 89 | – | –
CCCCN(CC)CCNC(=O)c1cc2c(=O)n(C)c3ccccc3c2s1 | – | – | – | – | – | – | ·
CCN1CCN(CCCNC(=O)c2cc3c(=O)[nH]c4ccccc4c3s2)CC1 | – | · | – | – | 52 | · | –
CCCCN(CC)CCNC(=O)c1cc2c(=O)[nH]c3ccc(C)cc3c2s1 | – | – | – | – | ? | – | –
CCCCN(CC)CCCNC(=O)c1cc2c(=O)[nH]c3ccccc3c2s1 | – | – | – | – | – | – | ·
CC1CCN(CCCNC(=O)c2n[nH]c(=O)c3ccccc23)CC1 | · | · | – | – | – | · | ·
CCN(CC)CCNC(=O)c1cc2c(=O)n(C)c3ccccc3c2s1 | – | – | – | – | 62 | – | –
O=C(NCCCN1CCOCC1)c1cc2c(=O)[nH]c3ccccc3c2s1 | – | – | – | – | – | – | ·
COC(=O)CCN1CCC2CC1c1cc(N3CCCCC3)ccc12 (configuration not stated) | – | – | – | – | – | – | ·
Nc1cc2c3c(cccc3c1)C(=O)N(CCN1CCCC1)C2=O | – | – | – | – | 90 | – | 28µM
CCN(CC)CCN1C(=O)c2cccc3cc(N)cc(c23)C1=O | – | – | – | – | ? | – | ·
OCCNc1nc(Nc2cccc(O)c2)nc2ccccc12 | – | – | · | · | · | – | ·
OCCNc1nc(Nc2ccc(O)cc2)nc2ccccc12 | · | – | – | – | 52 | – | –
CCCCN(CC)CCCNC(=O)c1cc2cc3ccc(OC)cc3nc2o1 | · | · | – | – | – | · | ·
CCN1CCN(CCCNC(=O)c2cc3cc4ccc(OC)cc4nc3o2)CC1 | · | · | – | – | 56 | · | –
COc1ccc2cc3cc(C(=O)NCCN4CCN(Cc5ccccc5)CC4)oc3nc2c1 | · | · | – | – | – | · | ·
COc1ccc2cc3cc(C(=O)NCCCN4CCC(C)CC4)oc3nc2c1 | · | · | – | – | 58 | · | –
CCCN(CCC)CCCNC(=O)c1cc2cc3ccc(OC)cc3nc2o1 | · | · | – | – | ? | · | –
CC1(C(=O)NS(=O)(=O)C2CC2)CCCN(C(=O)c2cccnc2Oc2ccccc2)C1 (configuration not stated) | · | – | – | – | – | · | ·
Cc1ccc(S(=O)(=O)N2CCOCC2)c(C)c1NS(C)(=O)=O | – | · | – | – | ? | · | –
CS(=O)(=O)Nc1ccc(S(=O)(=O)N2CCOCC2)cc1 | · | · | – | – | – | · | ·
SMILES | INS-1E GSIS act | RAD52 anneal inh | PglD inh | UUG fidelity | RAD54 inh | CASP6 VEID inh | DNA binding
C/C=C/c1ccc([C@@H]2[C@@H](CO)N3CCCCN(CCC(F)(F)F)C[C@@H]23)cc1 | – | – | – | – | – | – | ·
CCOC(=O)c1cnc2c(C)c(Cl)ccc2c1NCCCN1CCOCC1 | – | – | – | – | 60 | – | –
CCOC(=O)c1cnc2ccc(C)cc2c1NCCN1CCOCC1 | – | – | – | – | ? | – | –
CCOC(=O)c1cnc2c(Cl)c(Cl)ccc2c1NCCN1CCOCC1 | – | – | – | – | – | – | ·
CN(CC(=O)Nc1ccccc1Br)CC(=O)Nc1ccccc1-c1ccccc1 | – | – | – | – | – | – | ·
CCCCN(CC)CCCNC(=S)Nc1ccc2nc(N3CCN(CC)CC3)cc(C)c2c1 | – | 90 | – | – | 71 | – | –
COc1ccc(C(=O)OCC(=O)C(C)(C)C)cc1S(=O)(=O)N(C)CCc1cccnc1 | – | – | · | · | · | – | ·
Cc1[nH]ccc2c1[nH]c1cc(=O)ccc12 | – | – | – | – | 68 | – | –
O=c1cc[nH]c2c1ccc1c(=O)cc[nH]c12 | – | – | – | – | – | – | ·
CCOC(=O)C1=C(c2ccccc2)N(C)C(=O)NC1c1ccc(OC(F)F)c(OC)c1 (configuration not stated) | · | · | – | – | – | · | ·
COc1ccc2c(c1)c1ncn(CCN3CCCCC3)c(=O)c1n2C | · | · | – | – | 52 | · | –
COc1ccc2c(c1)c1ncn(CCN3CCCC3)c(=O)c1n2C | · | · | – | – | 59 | · | –
S=C(NCc1cccs1)Nc1cccc(Cl)c1Cl | – | · | – | – | – | · | ·
CN1CCN(c2ccc(CNC(=O)C3Cc4c(-c5ccc(Cl)cc5)ccnc4O3)cc2)CC1 (configuration not stated) | · | – | – | – | ? | – | –
CCc1ccccc1N(CC(=O)NCc1ccco1)C(=O)CCC(=O)Nc1ccccn1 | – | – | – | – | – | – | ·
CCOC(=O)Nc1c2ccccc2nc2ccccc12 | – | – | – | – | 57 | – | –
C=CC(=O)Nc1ccc(N(C)c2ccnc(Nc3ccc(N4CCN(C)CC4)cc3)n2)cc1 | – | 100 | – | – | 75 | – | –
CN1CCN(c2ccc(NC(=O)COc3ccccc3Cl)cc2)CC1 | – | · | – | – | – | · | ·
CS(=O)(=O)N1CC(=O)N2[C@H](CO)[C@H](c3ccc(C#CCc4ccccc4)cc3)[C@@H]2C1 | – | – | · | · | · | – | ·
CCOc1ccc2nc(C)cc(Nc3ccc4c(c3)OCCO4)c2c1 | · | · | – | – | 58 | · | –
Cc1cc(Nc2ccc3c(c2)OCCO3)c2cccc(C)c2n1 | – | · | – | – | 65 | · | –
Cc1ccc2nc(C)cc(Nc3ccc4c(c3)OCCO4)c2c1 | · | · | · | – | 60 | · | –
CCOc1ccc2nc(C)cc(Nc3cccc([N+](=O)[O-])c3)c2c1 | · | – | · | · | · | – | ·
Cc1cc(Nc2ccc3c(c2)OCCO3)c2ccccc2n1 | – | – | · | · | · | – | ·
Nc1c(C(=O)NCCN2CCOCC2)c2nc3ccccc3nc2n1-c1ccccc1 | · | · | – | – | 52 | · | –
Nc1c(C(=O)NCCN2CCOCC2)c2nc3ccccc3nc2n1CCc1ccccc1 | · | · | – | – | – | · | ·
Nc1c(C(=O)NCc2ccccc2)c2nc3ccccc3nc2n1-c1ccc2c(c1)OCO2 | · | · | – | – | – | · | ·
Nc1c(C(=O)NCCN2CCOCC2)c2nc3ccccc3nc2n1-c1ccc2c(c1)OCO2 | – | · | – | – | ? | · | –
COc1ccc(C(=O)NCCc2c[nH]c3ccccc23)cc1OC | – | – | – | – | – | – | ·

Assay outcomes deposited in PubChem BioAssay by Broad Institute.
